Assay results from patent publication US5266599A, “Use of (+)-1-[(3,4,5-trimethoxy)-benzyloxymethyl]-1-phenyl-N,N-dimethyl-n-propy lamine to increase gastric discharge in a subject” (priority 1989, dated 1993).

Key:
[1] = test system: opiate receptors of the gastric mucous membrane; assay: Effect of the products on the gastric evacuation of solids in dogs; format: in vivo; settings: intravenous antagonist
Source text: The research on the local activity of the product of the invention on the opiate receptors of the gastric mucous membrane has been carried out according to a method following that described by M. Gue et al. (already mentioned).
In an attempt to show such an action with the product of the invention, this has been used in this test, compared with its levorotary enantiomer and trimebutine which is known for its regulatory activity of the gastrointestinal functioning.
The principle of the test consists in measuring the gastric content of the animals one hour after eating a meal comprising 400 g of solid matter with 21.7% dry matter composed of:
and 20 g of sheeps liver containing radiolabelled cyanocobalamine. […]
The collected sample is weighed and homogenized. Its radioactivity is measured and the amount of the gastric discharge expressed in percentage is calculated according to the formula: [formula] in which: […]
In practice, each test is carried out on three dogs and consists in administering to them, 20 minutes before eating the meal described above, a capsule containing the test product at a dose of […] per kg animal weight or a capsule placebo which serves to determine the control phenomenon of the discharge on the animal. […] The evacuation values of the solid phases are measured as described before and compared using the test of Mann and Whitney (U test). […]

[2] = test system: opiate receptors of the kappa type in the gastric mucous membrane; settings: dog, M. Gue et al.; cited from earlier work

C=CCN1CC[C@]23c4c5ccc(O)c4O[C@H]2C(=O)CC[C@@]3(O)[C@H]1C5 [naloxone]
inhibition of the gastric discharge effect of the product of the invention by the antagonist (in words) [1]: inhibited | inhibition of the gastric discharge effect of kappa agonists (in words) [2]: inhibited
